## Binding of CDR-mutated scFvs to a peptide of the spike HR2 region

Binding partner: SARS-CoV-2 spike HR2 peptide, sequence PDVDLGDISGINAS.

Each scFv is VH, a 15-residue (Gly4Ser)3 linker, VL, as in the parent Ab-14, and differs from it in the CDRs of the heavy chain only.
VH: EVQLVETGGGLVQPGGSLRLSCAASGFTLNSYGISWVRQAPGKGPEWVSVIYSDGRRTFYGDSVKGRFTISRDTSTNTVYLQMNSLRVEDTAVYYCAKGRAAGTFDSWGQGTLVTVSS
VL: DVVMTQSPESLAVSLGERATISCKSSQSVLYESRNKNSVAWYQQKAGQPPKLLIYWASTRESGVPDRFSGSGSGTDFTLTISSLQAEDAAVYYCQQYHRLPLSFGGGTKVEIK

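The parent was found by panning a naive human phage display library on the peptide. In library AAYL49, one, two or three CDR residues were substituted; doubles and triples were drawn at random. The assay is AlphaSeq: two haploid yeast populations carry antibody and antigen on their surface. Mating (16 h, 30 °C) was followed by selection of diploids and sequencing of their barcodes. Read counts were normalised to the haploid input and turned into Kd by a linear fit to BCL2-family pairs of known affinity, for each replicate. Mating was done three times.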

Substitutions are numbered in sequence along the VH above, starting at 1 (not Kabat). The read-out is the apparent dissociation constant on a log10 scale (nM): the lower, the stronger. Averages over replicates are reported, and they cover detected replicates only. An entry "nd" has no value in the source: the pair was not observed among the diploids in that replicate. This suggests poor binding but is not conclusive. Parent in this assay: reference entry 0.65, copy in this library 4.11 (one replicate of three).

With I51M+G99C+R100W the result was nd, nd, nd (controls 0 of 9).
With T58W+A102V the result was nd, nd, nd (controls 0 of 9).
With F59K+S107N the result was nd, nd, nd (controls 1 of 9).
With G55R+T104K the result was 4.18, 3.37, nd (mean 3.77; controls 3 of 9).
With T28A+V64A+K65S the result was nd, nd, nd (controls 3 of 9).
With I34H+T58A+F105A the result was nd, nd, nd (controls 2 of 9).
With K65H+G99D+F105G the result was 3.74, 2.92, 3.31 (mean 3.32; controls 1 of 9).
With I34H+V64P+F105S the result was 5.35, 3.98, nd (mean 4.67; controls 1 of 9).
With V50P+R100S+D106P the result was nd, nd, nd (controls 4 of 9).
With G55E+F59A the result was 4.43, nd, nd (controls 1 of 9).
With V50F+T58I+G61K the result was nd, 3.69, 4.02 (mean 3.86; controls 0 of 9).
With L29F+G33W+V64K the result was nd, nd, nd (controls 0 of 9).
With I34W+Y60F+D62H the result was nd, nd, nd (controls 2 of 9).
With S53K+D62M+G99E the result was 4.45, nd, 4.19 (mean 4.32; controls 3 of 9).
With R57K+A102E+T104E the result was nd, nd, nd (controls 0 of 9).
With V50Y+Y52I+R100T the result was nd, nd, 5.44 (controls 3 of 9).
With Y32S+V50S+D106C the result was nd, 4.36, nd (controls 1 of 9).
With S31H the result was 1.07, 1.17, 1.06 (mean 1.10; controls 2 of 9).
With L29R+D62E+S63I the result was nd, nd, nd (controls 0 of 9).
With N30M+V50W+G55K the result was nd, 4.48, nd (controls 2 of 9).
With A102W+D106M the result was nd, nd, nd (controls 2 of 9).
With I34A+D54C+F59C the result was nd, nd, nd (controls 0 of 9).
With T28S+S53K+G55E the result was nd, nd, nd (controls 0 of 9).
With L29Q+I34M+G99F the result was nd, nd, nd (controls 1 of 9).
With D54Q+G55D+G61T the result was 3.82, nd, nd (controls 0 of 9).
With Y32H+S53T+A102D the result was nd, nd, nd (controls 1 of 9).
With Y32D+S35A the result was nd, nd, 4.41 (controls 0 of 9).
With G55D+G61F+T104N the result was nd, nd, nd (controls 1 of 9).
With R57K+F105S the result was 1.57, 1.91, 2.10 (mean 1.86; controls 4 of 9).
With T28P+Y52S+T104F the result was nd, 3.40, 4.60 (mean 4.00; controls 4 of 9).
With L29I+R57H+F105D the result was 2.31, 2.58, nd (mean 2.44; controls 0 of 9).

The first 4 variants above that were never detected:

Variant I51M+G99C+R100W gave nd, nd, nd (controls 0 of 9).
Variant T58W+A102V gave nd, nd, nd (controls 0 of 9).
Variant F59K+S107N gave nd, nd, nd (controls 1 of 9).
Variant T28A+V64A+K65S gave nd, nd, nd (controls 3 of 9).

Three control strains display no target. For library AAYL49, 15% of the pairings with them gave a signal, with a median of 4.06 and one signal in twenty below 2.83, so weak values seen in few replicates may be background. For each scFv, signals with the empty controls are counted beside the result.

From the AlphaSeq antibody data of Engelhart et al. 2022 (doi:10.1038/s41597-022-01779-4), copy in the FLAb collection.